In PubChem BioAssay AID1745853 (National Center for Advancing Translational Sciences (NCATS), 2022):
Only a part is listed here, and it is no random draw. Results filed as inconclusive are left out. Active and inactive are the calls of the source. No rule for the calls is given here.

Chains of the proteins cited; added tags and fusions are not shown.
UniProt P21964, whole entry: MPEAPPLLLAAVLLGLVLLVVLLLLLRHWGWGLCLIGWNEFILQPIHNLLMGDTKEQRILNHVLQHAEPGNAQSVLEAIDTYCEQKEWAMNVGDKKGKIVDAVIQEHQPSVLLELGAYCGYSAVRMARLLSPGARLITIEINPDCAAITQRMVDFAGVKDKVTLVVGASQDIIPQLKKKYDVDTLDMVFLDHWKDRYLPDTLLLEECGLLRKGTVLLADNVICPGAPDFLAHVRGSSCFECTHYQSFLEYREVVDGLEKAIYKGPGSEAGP

target: Catechol O-methyltransferase (Homo sapiens) (UniProt P21964); assay: Primary Screen for Target Class Profiling of Small Molecule Inhibitors of Methyltransferases; conditions: purified enzyme, MTase-Glo SAH luminescence; at 40 µM; stronger effect = lower value
Description: PI: Matthew D. Hall Ph.D. and Quinlin M. Hanson Ph.D.
National Center for Advancing Translational Sciences (NCATS)
National Institute of Health (NIH), Rockville, MD
Target class profiling (TCP) is a chemical biology approach amenable to investigating understudied biological targets. TCP is achieved by developing a generalizable assay platform and applying it to screen a curated set of compound libraries against representative members of a target class. Small molecule methyltransferases (SMMTase) are a subclass of methyltransferase that act on metabolites to modulate signaling pathways, metabolize xenobiotics, or balance the available methyl pool. […]
High-through put screening assays were developed at the National Center for Advancing Translational Science (NCATS) for the enzymes NNMT, PNMT, HNMT, GNMT, COMT, and GAMT. Enzymatic activity was measured as a function of SAM cofactor conversion using the MTase Glo kit (Promega) for all enzymes. […] The IC50 and efficacy (maximal response) values were determined for each dose-response curve. […]
10; Time; 30 min; Incubation, luminescence evolution.
11; Detection; Luminescence; ViewLux uHTS Microplate Imager (PerkinElmer). […]
% is scaled to controls: 0 for no effect and ±100 for the full control effect.

| SMILES | activity change, negative = inhibition |
| --- | --- |
| CC(=O)N1CCc2ccc(N(C(=O)/C=C/c3cccc(C#N)c3)C3CCN(CCC4CCCC4)CC3)cc21 | inactive: 7.26% |
